Patent publication US20220119490A1 (Genentech, published 2022)

Key:
[1] = target: T1, FCGR2A_DNA809501 (human, UniProt P12318); assay: extracellular interaction screen, normalized intensity; labelled dot against the clone named on the axis; which is query and which prey is not given; colour of the predicted class lost
T1 construct: extracellular domain
T1 sequence (extracellular domain construct of the screen, looked up): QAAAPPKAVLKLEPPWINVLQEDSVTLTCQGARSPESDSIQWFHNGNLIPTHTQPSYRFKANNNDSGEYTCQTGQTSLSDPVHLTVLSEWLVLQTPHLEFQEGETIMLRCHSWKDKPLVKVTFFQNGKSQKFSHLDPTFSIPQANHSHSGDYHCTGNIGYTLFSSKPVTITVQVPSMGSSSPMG

[2] = target: T2, CD48_DNA809504 (human, UniProt P09326); assay: as above
T2 construct: extracellular domain
T2 sequence (extracellular domain construct of the screen, looked up): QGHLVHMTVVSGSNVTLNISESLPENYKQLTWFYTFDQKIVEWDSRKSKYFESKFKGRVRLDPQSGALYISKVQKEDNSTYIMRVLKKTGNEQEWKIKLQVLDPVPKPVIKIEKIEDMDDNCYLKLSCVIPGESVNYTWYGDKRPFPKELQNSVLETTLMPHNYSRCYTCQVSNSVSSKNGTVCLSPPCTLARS

B1: PD-1 extracellular domain (receptor, human, UniProt Q15116 25-170, looked up)
chain: LDSPDRPWNPPTFSPALLVVTEGDNATFTCSFSNTSESFVLNWYRMSPSNQTDKLAAFPEDRSQPGQDCRFRVTQLPNGRDFHMSVVRARRNDSGTYLCGAISLAPKAQIKESLRAELRVTERRAEVPTAHPSPSPRPAGQFQTLV
notes: extracellular domain; ECD construct; also called PDCD1; programmed cell death 1
binding result [1]: binds | binding result [2]: binds
